Cyclic peptide permeability, from CycPeptMPDB

Data: CycPeptMPDB; original report Kelly et al. 2021, doi:10.1021/jacs.0c06115.

PAMPA measures passive passage through an artificial lipid membrane.
MDCK: transport across canine kidney epithelial cells.
P is given in units of 10^-6 cm/s (from log10 values with two decimals); larger means faster passage.

CC(=O)N1CCC[C@@H]1C(=O)N(C)[C@H](CC(C)C)C(=O)N[C@@H]1C(=O)N[C@H](CC(C)C)C(=O)N[C@H](CC(C)C)C(=O)N[C@H](CC(C)C)C(=O)N[C@@H](C)C(=O)N[C@H](CC(C)C)C(=O)N2CCC[C@H]2C(=O)O[C@@H]1C has PAMPA 0.52 × 10^-6 cm/s. CC(=O)N1CCC[C@@H]1C(=O)N(C)[C@H](CC(C)C)C(=O)N[C@@H]1C(=O)N[C@@H](CC(C)C)C(=O)N[C@@H](CC(C)C)C(=O)N[C@@H](CC(C)C)C(=O)N(C)[C@H](C)C(=O)N[C@H](CC(C)C)C(=O)N2CCC[C@H]2C(=O)O[C@@H]1C is reported with PAMPA 0.52 × 10^-6 cm/s. CC(=O)N1CCC[C@@H]1C(=O)N(C)[C@H](CC(C)C)C(=O)N[C@@H]1C(=O)N[C@@H](CC(C)C)C(=O)N(C)[C@H](CC(C)C)C(=O)N(C)[C@@H](CC(C)C)C(=O)N(C)[C@H](C)C(=O)N[C@@H](CC(C)C)C(=O)N2CCC[C@@H]2C(=O)O[C@@H]1C has PAMPA 1.7 × 10^-6 cm/s. The entry for CC(=O)N1CCC[C@@H]1C(=O)N(C)[C@@H](CC(C)C)C(=O)N[C@@H]1C(=O)N(C)[C@H](CC(C)C)C(=O)N(C)[C@@H](CC(C)C)C(=O)N(C)[C@@H](CC(C)C)C(=O)N(C)[C@@H](C)C(=O)N[C@@H](CC(C)C)C(=O)N2CCC[C@H]2C(=O)O[C@@H]1C lists PAMPA 3.5 × 10^-6 cm/s.

CC(=O)N1CCC[C@H]1C(=O)N[C@@H]1C(=O)N(C)[C@H](CC(C)C)C(=O)N[C@H](CC(C)C)C(=O)N[C@@H](CC(C)C)C(=O)N(C)[C@@H](CC(C)C)C(=O)N(C)[C@H](C)C(=O)N[C@@H](CC(C)C)C(=O)N2CCC[C@@H]2C(=O)O[C@@H]1C is reported with PAMPA 1.7 × 10^-6 cm/s. CC(=O)N[C@@H]1C(=O)N2CCC[C@H]2C(=O)N(C)[C@H](CC(C)C)C(=O)N[C@@H](CC(C)C)C(=O)N[C@H](CC(C)C)C(=O)N[C@@H](CC(C)C)C(=O)N(C)[C@H](C)C(=O)N[C@@H](CC(C)C)C(=O)N2CCC[C@@H]2C(=O)O[C@@H]1C is reported with PAMPA 0.18 × 10^-6 cm/s. CC(=O)N1CCC[C@H]1C(=O)N(C)[C@@H](CC(C)C)C(=O)N[C@@H]1C(=O)N(C)[C@@H](CC(C)C)C(=O)N(C)[C@H](CC(C)C)C(=O)N[C@H](CC(C)C)C(=O)N[C@@H](C)C(=O)N[C@H](CC(C)C)C(=O)N2CCC[C@@H]2C(=O)O[C@@H]1C has PAMPA 0.18 × 10^-6 cm/s. For CC(=O)N1CCC[C@H]1C(=O)N[C@@H]1C(=O)N[C@H](CC(C)C)C(=O)N[C@@H](CC(C)C)C(=O)N(C)[C@@H](CC(C)C)C(=O)N[C@@H](CC(C)C)C(=O)N(C)[C@H](C)C(=O)N[C@@H](CC(C)C)C(=O)N2CCC[C@@H]2C(=O)O[C@@H]1C the data give PAMPA 1.2 × 10^-6 cm/s.

The entry for CC(=O)N1CCC[C@@H]1C(=O)N(C)[C@@H](CC(C)C)C(=O)N[C@@H]1C(=O)N(C)[C@@H](CC(C)C)C(=O)N(C)[C@H](CC(C)C)C(=O)N(C)[C@@H](CC(C)C)C(=O)N(C)[C@H](C)C(=O)N[C@@H](CC(C)C)C(=O)N2CCC[C@H]2C(=O)O[C@@H]1C lists PAMPA 3.1 × 10^-6 cm/s. For CC(=O)N1CCC[C@H]1C(=O)N(C)[C@H](CC(C)C)C(=O)N[C@@H]1C(=O)N[C@H](CC(C)C)C(=O)N(C)[C@@H](CC(C)C)C(=O)N[C@H](CC(C)C)C(=O)N[C@H](C)C(=O)N[C@@H](CC(C)C)C(=O)N2CCC[C@H]2C(=O)O[C@@H]1C the data give PAMPA 1.2 × 10^-6 cm/s and MDCK 0.89 × 10^-6 cm/s. Listed for CC(=O)N1CCC[C@@H]1C(=O)N(C)[C@H](CC(C)C)C(=O)N[C@@H]1C(=O)N[C@@H](CC(C)C)C(=O)N[C@H](CC(C)C)C(=O)N(C)[C@H](CC(C)C)C(=O)N[C@@H](C)C(=O)N[C@@H](CC(C)C)C(=O)N2CCC[C@@H]2C(=O)O[C@@H]1C: PAMPA 0.12 × 10^-6 cm/s. Listed for CC(=O)N1CCC[C@H]1C(=O)N(C)[C@@H](CC(C)C)C(=O)N[C@@H]1C(=O)N(C)[C@H](CC(C)C)C(=O)N(C)[C@@H](CC(C)C)C(=O)N(C)[C@@H](CC(C)C)C(=O)N(C)[C@H](C)C(=O)N[C@@H](CC(C)C)C(=O)N2CCC[C@H]2C(=O)O[C@@H]1C: PAMPA 4.8 × 10^-6 cm/s.

CC(=O)N1CCC[C@@H]1C(=O)N(C)[C@H](CC(C)C)C(=O)N[C@@H]1C(=O)N[C@@H](CC(C)C)C(=O)N[C@@H](CC(C)C)C(=O)N[C@@H](CC(C)C)C(=O)N[C@@H](C)C(=O)N[C@@H](CC(C)C)C(=O)N2CCC[C@H]2C(=O)O[C@@H]1C is reported with PAMPA 0.065 × 10^-6 cm/s. For CC(=O)N1CCC[C@H]1C(=O)N(C)[C@@H](CC(C)C)C(=O)N[C@@H]1C(=O)N(C)[C@@H](CC(C)C)C(=O)N(C)[C@@H](CC(C)C)C(=O)N[C@@H](CC(C)C)C(=O)N[C@@H](C)C(=O)N[C@H](CC(C)C)C(=O)N2CCC[C@@H]2C(=O)O[C@@H]1C the data give PAMPA 0.02 × 10^-6 cm/s. CC(=O)N1CCC[C@H]1C(=O)N(C)[C@H](CC(C)C)C(=O)N[C@@H]1C(=O)N[C@H](CC(C)C)C(=O)N(C)[C@@H](CC(C)C)C(=O)N(C)[C@H](CC(C)C)C(=O)N(C)[C@H](C)C(=O)N[C@@H](CC(C)C)C(=O)N2CCC[C@@H]2C(=O)O[C@@H]1C has PAMPA 5.9 × 10^-6 cm/s. CC(=O)N1CCC[C@H]1C(=O)N(C)[C@H](CC(C)C)C(=O)N[C@@H]1C(=O)N[C@@H](CC(C)C)C(=O)N(C)[C@@H](CC(C)C)C(=O)N[C@@H](CC(C)C)C(=O)N(C)[C@H](C)C(=O)N[C@H](CC(C)C)C(=O)N2CCC[C@H]2C(=O)O[C@@H]1C has PAMPA 1.7 × 10^-6 cm/s.

For CC(=O)N1CCC[C@@H]1C(=O)N(C)[C@H](CC(C)C)C(=O)N[C@@H]1C(=O)N[C@H](CC(C)C)C(=O)N[C@@H](CC(C)C)C(=O)N[C@H](CC(C)C)C(=O)N(C)[C@H](C)C(=O)N[C@H](CC(C)C)C(=O)N2CCC[C@H]2C(=O)O[C@@H]1C the data give PAMPA 0.43 × 10^-6 cm/s. The entry for CC(=O)N1CCC[C@@H]1C(=O)N(C)[C@@H](CC(C)C)C(=O)N[C@@H]1C(=O)N[C@H](CC(C)C)C(=O)N(C)[C@@H](CC(C)C)C(=O)N(C)[C@H](CC(C)C)C(=O)N(C)[C@H](C)C(=O)N[C@@H](CC(C)C)C(=O)N2CCC[C@@H]2C(=O)O[C@@H]1C lists PAMPA 6 × 10^-6 cm/s.

2 of these entries, quoted again:

Listed for CC(=O)N1CCC[C@@H]1C(=O)N(C)[C@H](CC(C)C)C(=O)N[C@@H]1C(=O)N[C@H](CC(C)C)C(=O)N[C@@H](CC(C)C)C(=O)N[C@H](CC(C)C)C(=O)N(C)[C@H](C)C(=O)N[C@H](CC(C)C)C(=O)N2CCC[C@H]2C(=O)O[C@@H]1C: PAMPA 0.43 × 10^-6 cm/s.
Listed for CC(=O)N1CCC[C@H]1C(=O)N(C)[C@H](CC(C)C)C(=O)N[C@@H]1C(=O)N[C@H](CC(C)C)C(=O)N(C)[C@@H](CC(C)C)C(=O)N(C)[C@H](CC(C)C)C(=O)N(C)[C@H](C)C(=O)N[C@@H](CC(C)C)C(=O)N2CCC[C@@H]2C(=O)O[C@@H]1C: PAMPA 5.9 × 10^-6 cm/s.

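Conditions beyond the assay type are not listed; see the original paper. Other peptides of the study may be missing here. Entries at the database's floor value (log10 P of -10) are not listed.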